# Source: PubChem BioAssay AID602163 (The Scripps Research Institute Molecular Screening Center, 2012)
# This is a selection; strong and weak results do not stand in their true shares. Activity calls are given as the source filed them. Cut-off read from the data, not from the text of the source: active = activation above about 7.5%; inactive = the rest.
# Test system: Methionine sulfoxide reductase A (Bos taurus)
# Assay: bovine MsrA enzyme activators, primary screen, biochemical, absorbance, HTS (AID 602163);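 note: 0% = vehicle and 100% = reference activator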
# Details: purified bovine MsrA, absorbance read-out; at 10.6 µM; hits give high values
row,Structure (SMILES),activation
1,O=c1[nH]c2ccccc2n1C1CCN(C(c2cccc3ccccc23)c2nnnn2C2CCCC2)CC1 (stereo not drawn),inactive: -4.17%
2,CCOC(=O)N1CCC(Nc2cccc(C)c2)CC1,inactive: -1.81%
3,COc1cc(C(=O)NCC2(N(C)C)CCCCC2)ccc1OC(F)F,inactive: -6.13%
4,O=c1[nH]c2ccccc2n1C1CCN(C(c2ccccc2)c2nnnn2C2CCCCC2)CC1 (stereo not drawn),inactive: 0.28%
5,CCCCOc1ccc(C(=O)NCC2(N3CCOCC3)CCCCC2)cc1,inactive: -4.83%
6,CCCCn1nnnc1C(c1cc2ccccc2o1)N1CCC(n2c(=O)[nH]c3ccccc32)CC1 (stereo not drawn),inactive: -2.37%
7,O=P1(N(CCCl)CCCl)SCCCS1,inactive: -2.59%
8,O=C(NCC1(N2CCCCC2)CCCCC1)c1ccc(F)cc1,inactive: -2.55%
9,CCOC(=O)N1CCC(Nc2ccc(F)cc2)CC1,inactive: -3.82%
10,COc1ccc(NC2CCN(CCc3ccccc3)CC2)c(OC)c1,inactive: -4.02%
11,CCOc1ccc(C)cc1CN(CCCl)CCCl,inactive: -1.14%
12,CC(C)(C)n1nnnc1C(c1ccccc1)N1CCC(n2c(=O)[nH]c3ccccc32)CC1 (stereo not drawn),inactive: -1.19%
13,O=C1CCN(Cc2ccccc2)CC1,inactive: -0.78%
14,CCOC(=O)N1CCC(Nc2ccc(OC)cc2)CC1,inactive: -3.97%
15,CCCCn1nnnc1C(c1ccc(OC)cc1)N1CCC(n2c(=O)[nH]c3ccccc32)CC1 (stereo not drawn),inactive: -4.46%
16,O=C(NCC1(N2CCCCC2)CCCCC1)c1ccc(Cl)s1,inactive: -0.59%
17,N#CC1(Nc2ccccc2)CCN(Cc2ccccc2)CC1,inactive: -3.09%
18,O=c1[nH]c2ccccc2n1C1CCN(C(c2cc3ccccc3o2)c2nnnn2C2CCCCC2)CC1 (stereo not drawn),inactive: 0.09%
19,O=C(OC1CN2CCC1CC2)C1c2ccccc2Oc2ccccc21 (stereo not drawn),inactive: -2.84%
20,COc1ccc(Cl)cc1C(=O)NCC1(N2CCOCC2)CCCCC1,inactive: -3.15%
21,O=C(NCC1(N2CCOCC2)CCCCC1)c1cc2ccccc2o1,inactive: -0.55%
22,O=C(NCC1(N2CCCCC2)CCCCC1)c1ccc(Cl)nc1,inactive: -0.32%

row,Structure (SMILES),activation
1,O=c1[nH]c2ccccc2n1C1CCN(C(c2ccccc2OC(F)(F)F)c2nnnn2C2CCCCC2)CC1 (stereo not drawn),inactive: 1.23%
2,Cc1cc(C)cc(N(C(=O)c2ccccc2)C2CCN(C(=O)OC(C)(C)C)CC2)c1,inactive: -3.42%
3,CSc1ccccc1C(=O)NCC1(N2CCCCC2)CCCCC1,inactive: -4.31%
4,Cc1cccc(NC2(C#N)CCN(Cc3ccccc3)CC2)c1,inactive: -1.75%
5,O=C(NCC1(N2CCCCC2)CCCCC1)c1ccc(=O)[nH]c1,inactive: -0.36%
6,CCCCn1nnnc1C(CC)N1CCC(n2c(=O)[nH]c3ccccc32)CC1 (stereo not drawn),inactive: -1.99%
7,O=C(NCC1(N2CCCCC2)CCCCC1)c1cccs1,inactive: -10.4%
8,CCCCn1nnnc1C(c1cccs1)N1CCC(n2c(=O)[nH]c3ccccc32)CC1 (stereo not drawn),inactive: -11.9%
9,COc1ccc(C(=O)NCC2(N3CCCCC3)CCCCC2)cc1,inactive: -3.19%
10,COc1ccc(C(=O)NCC2(N3CCCCC3)CCCCC2)c(OC)c1OC,inactive: -8.64%
11,CC(C)(C)OC(=O)N1CCC(N(C(=O)c2ccccc2)c2ccc(F)cc2)CC1,inactive: -2.12%
12,CCC(c1nnnn1C1CCCC1)N1CCC(n2c(=O)[nH]c3ccccc32)CC1 (stereo not drawn),inactive: 0.38%
13,Cc1ccc(C(=O)NCC2(N(C)C)CCCCC2)o1,inactive: 0.61%
14,CCCOc1ccc(C(=O)NCC2(N(C)C)CCCCC2)cc1OC,inactive: -2.64%
15,COc1ccc(C(c2nnnn2C2CCCC2)N2CCC(n3c(=O)[nH]c4ccccc43)CC2)cc1 (stereo not drawn),inactive: -2.53%
16,CN1CCC(Nc2cccc(F)c2)CC1,inactive: 1.87%
17,O=C(NCC1(N2CCCCC2)CCCCC1)c1cncc(Br)c1,inactive: -0.73%
18,CCCCn1nnnc1C(c1ccnc2ccccc12)N1CCC(n2c(=O)[nH]c3ccccc32)CC1 (stereo not drawn),inactive: -1.1%
19,COc1cc(OC)c(C(=O)NCC2(N(C)C)CCCCC2)cc1OC,inactive: -4.31%
20,CCC(c1nnnn1C(C)(C)C)N1CCC(n2c(=O)[nH]c3ccccc32)CC1 (stereo not drawn),inactive: -2.18%
21,O=C(NCC1(N2CCOCC2)CCCCC1)c1cc(F)c(F)cc1Cl,inactive: -3.03%
22,COc1ccc(CN(CCCl)CCCl)cc1Cl,inactive: 5.09%

row,Structure (SMILES),activation
1,CN(C)c1cccc(C(=O)NCC2(N3CCCCC3)CCCCC2)c1,inactive: 0.7%
2,CCCCn1nnnc1C(c1ccccc1OC(F)(F)F)N1CCC(n2c(=O)[nH]c3ccccc32)CC1 (stereo not drawn),inactive: 1.42%
3,CC(C)c1ccc(NC2CCN(C(=O)OC(C)(C)C)CC2)cc1,inactive: -0.91%
4,COc1ccc(NC2CCN(C(=O)OC(C)(C)C)CC2)cc1,inactive: -3.16%
5,CC(C)c1ccc(C(=O)NCC2(N3CCOCC3)CCCCC2)cc1,inactive: -0.18%
6,CN1CCN(CCOC(=O)C(O)(c2ccccc2)c2ccccc2)CC1,inactive: -3.93%
7,CCCCn1nnnc1C(c1cccc2ccccc12)N1CCC(n2c(=O)[nH]c3ccccc32)CC1 (stereo not drawn),inactive: -0.66%
8,O=C(NCC1(N2CCOCC2)CCCCC1)c1cc(=O)[nH]c2ccccc12,inactive: -2.52%
9,COc1cc(C(=O)NCC2(N3CCCCC3)CCCCC2)ccc1OC(F)F,inactive: -1.9%
10,O=C(NCC1(N2CCCCC2)CCCCC1)c1cccc(C(F)(F)F)c1,inactive: -1.1%
11,O=C(NCC1(N2CCCCC2)CCCCC1)c1cccc([N+](=O)[O-])c1,inactive: -3.79%
12,CSc1ccc(C(=O)NCC2(N3CCOCC3)CCCCC2)cc1,inactive: -5.46%
13,CCN1CCC(Nc2ccc(Cl)cc2)CC1,inactive: 2.79%
14,O=c1[nH]c2ccccc2n1C1CCN(C(c2ccccc2OC(F)(F)F)c2nnnn2C2CCCC2)CC1 (stereo not drawn),inactive: 0.57%
15,N#CC1(Nc2ccccc2)CCN(CCc2ccccc2)CC1,inactive: 1.03%
16,CC(C)(C)n1nnnc1C(c1ccccc1OC(F)(F)F)N1CCC(n2c(=O)[nH]c3ccccc32)CC1 (stereo not drawn),inactive: -5.22%
17,O=C(NCC1(N2CCCCC2)CCCCC1)c1ccc(OC(F)F)cc1,inactive: -2.45%
18,CC(C)(C)n1nnnc1C(c1cccc2ccccc12)N1CCC(n2c(=O)[nH]c3ccccc32)CC1 (stereo not drawn),inactive: 0.28%
19,c1ccc(CN2CCC(Nc3ccccc3)CC2)cc1,inactive: -0.09%
20,O=c1[nH]c2ccccc2n1C1CCN(C(c2ccccc2)c2nnnn2C2CCCC2)CC1 (stereo not drawn),inactive: -8.16%
21,CCCN1CCC(Nc2cc(OC)cc(OC)c2)CC1,inactive: 2.03%
22,Cc1cc(N(CCCl)CCCl)ccc1C=O,inactive: -3.8%

row,Structure (SMILES),activation
1,CN(C)C1(CNC(=O)c2cccc(C#N)c2)CCCCC1,inactive: -3.42%
2,CC(C)(C)OC(=O)N1CCC(N(C(=O)c2ccccc2)c2ccc(Cl)cc2)CC1,inactive: 0.05%
3,N#Cc1ccc(C(=O)NCC2(N3CCCCC3)CCCCC2)cc1,inactive: -9.57%
4,CCCCn1nnnc1C(c1cccc(OC)c1OC)N1CCC(n2c(=O)[nH]c3ccccc32)CC1 (stereo not drawn),inactive: 2.53%
5,O=C(OC1CN2CCC1CC2)C1c2ccccc2C=Cc2ccccc21 (stereo not drawn),inactive: -2.57%
6,O=c1[nH]c2ccccc2n1C1CCN(C(c2cccs2)c2nnnn2C2CCCC2)CC1 (stereo not drawn),inactive: -1.42%
7,N/C(=N\O)c1c(N)no[n+]1[O-],inactive: -3.27%
8,CCOC(=O)N1CCC(Nc2ccc(C)cc2)CC1,inactive: -6.38%
9,COc1cccc(C(c2nnnn2C(C)(C)C)N2CCC(n3c(=O)[nH]c4ccccc43)CC2)c1OC (stereo not drawn),inactive: -5.12%
10,COc1ccc(C(=O)NCC2(N3CCOCC3)CCCCC2)cc1OC,inactive: -8.05%
11,O=c1[nH]c2ccccc2n1C1CCN(C(c2ccnc3ccccc23)c2nnnn2C2CCCC2)CC1 (stereo not drawn),inactive: -0.76%
12,O=c1[nH]c2ccccc2n1C1CCN(C(c2cccs2)c2nnnn2C2CCCCC2)CC1 (stereo not drawn),inactive: -2.75%
13,O=C(NCC1(N2CCOCC2)CCCCC1)c1cc(Br)ccc1Cl,inactive: -1.51%
14,CCCCn1nnnc1C(c1ccccc1)N1CCC(n2c(=O)[nH]c3ccccc32)CC1 (stereo not drawn),inactive: -0.71%
15,COc1cc(C(=O)NCC2(N3CCOCC3)CCCCC2)cc(OC)c1C,inactive: 0.14%
16,CN1CCC(Nc2ccc(Cl)cc2)CC1,inactive: 0%
17,CCC(CO)(C(=O)OC1CN2CCC1CC2)c1ccccc1 (stereo not drawn),inactive: -9.82%
18,COc1cccc(C(=O)N(c2cc(C)cc(C)c2)C2CCN(C(=O)OC(C)(C)C)CC2)c1,inactive: 0.45%
19,COc1cc(OC)cc(C(=O)NCC2(N3CCOCC3)CCCCC2)c1,inactive: -0.79%
20,COc1cccc(C(c2nnnn2C2CCCC2)N2CCC(n3c(=O)[nH]c4ccccc43)CC2)c1OC (stereo not drawn),inactive: -1.71%
21,O=c1[nH]c2ccccc2n1C1CCN(C(c2cc3ccccc3o2)c2nnnn2C2CCCC2)CC1 (stereo not drawn),inactive: -0.57%
22,CCCOc1ccc(C(=O)NCC2(N(C)C)CCCCC2)cc1,inactive: -0.77%

row,Structure (SMILES),activation
1,CC(C)(C)OC(=O)N1CCC(Nc2ccccc2)CC1,inactive: -11.5%
2,NN(c1ccccc1)C1CCN(CCc2ccccc2)CC1,inactive: 0.19%
3,O=C(O)C1(Nc2ccccc2)CCN(Cc2ccccc2)CC1,inactive: -4.29%
4,CCOc1ncccc1C(=O)NCC1(N2CCOCC2)CCCCC1,inactive: -0.7%
5,CN1CCC(Nc2ccc(F)c(Cl)c2)CC1,inactive: -1.33%
6,O=C(NCC1(N2CCCCC2)CCCCC1)c1ccco1,inactive: -1.05%
7,CN(C)c1ccc(C(=O)NCC2(N3CCCCC3)CCCCC2)cc1,inactive: -5.69%
8,Cn1c(=O)[nH]cc(N(CCCl)CCCl)c1=O,inactive: -0.71%
9,Cc1ccccc1NC1(C#N)CCN(Cc2ccccc2)CC1,inactive: -2.21%
10,COc1ccc(C(c2nnnn2C2CCCCC2)N2CCC(n3c(=O)[nH]c4ccccc43)CC2)cc1 (stereo not drawn),inactive: -3.96%
11,CCN1CCC(Nc2cccc(F)c2)CC1,inactive: -1.72%
12,CC(C)(C)n1nnnc1C(c1ccnc2ccccc12)N1CCC(n2c(=O)[nH]c3ccccc32)CC1 (stereo not drawn),inactive: -11.5%
13,Cc1ccc(NC2(C#N)CCN(Cc3ccccc3)CC2)cc1,inactive: -3.54%
14,Cc1ccc(C(=O)NCC2(N3CCCCC3)CCCCC2)o1,inactive: 2.27%
15,Fc1ccccc1NC1CCN(Cc2ccccc2)CC1,inactive: 0.33%
16,COc1cc(OC)cc(C(=O)NCC2(N3CCCCC3)CCCCC2)c1,inactive: -2.39%
17,O=c1[nH]c2ccccc2n1C1CCN(C(c2ccnc3ccccc23)c2nnnn2C2CCCCC2)CC1 (stereo not drawn),inactive: 0.66%
18,COc1cccc(C(c2nnnn2C2CCCCC2)N2CCC(n3c(=O)[nH]c4ccccc43)CC2)c1OC (stereo not drawn),inactive: -0.85%
19,CC(=O)N(c1ccccc1)C1CCNCC1,inactive: -7.2%
20,CCC(c1nnnn1C1CCCCC1)N1CCC(n2c(=O)[nH]c3ccccc32)CC1 (stereo not drawn),inactive: -7.4%
